Biological target: Sucrase-isomaltase, intestinal (Rattus norvegicus, UniProt P23739)
Experiment: Inhibition of rat intestinal sucrase using p-nitrophenyl-alpha-d-glucopyranoside as substrate incubated for 10 mins prior to substrate addition measured after 5 mins by spectrophotometry

By UniProt entry, the sequences of proteins in these tests, tags left out. Residues count along the entry.
UniProt P23739, 1014-1841 limits assumed: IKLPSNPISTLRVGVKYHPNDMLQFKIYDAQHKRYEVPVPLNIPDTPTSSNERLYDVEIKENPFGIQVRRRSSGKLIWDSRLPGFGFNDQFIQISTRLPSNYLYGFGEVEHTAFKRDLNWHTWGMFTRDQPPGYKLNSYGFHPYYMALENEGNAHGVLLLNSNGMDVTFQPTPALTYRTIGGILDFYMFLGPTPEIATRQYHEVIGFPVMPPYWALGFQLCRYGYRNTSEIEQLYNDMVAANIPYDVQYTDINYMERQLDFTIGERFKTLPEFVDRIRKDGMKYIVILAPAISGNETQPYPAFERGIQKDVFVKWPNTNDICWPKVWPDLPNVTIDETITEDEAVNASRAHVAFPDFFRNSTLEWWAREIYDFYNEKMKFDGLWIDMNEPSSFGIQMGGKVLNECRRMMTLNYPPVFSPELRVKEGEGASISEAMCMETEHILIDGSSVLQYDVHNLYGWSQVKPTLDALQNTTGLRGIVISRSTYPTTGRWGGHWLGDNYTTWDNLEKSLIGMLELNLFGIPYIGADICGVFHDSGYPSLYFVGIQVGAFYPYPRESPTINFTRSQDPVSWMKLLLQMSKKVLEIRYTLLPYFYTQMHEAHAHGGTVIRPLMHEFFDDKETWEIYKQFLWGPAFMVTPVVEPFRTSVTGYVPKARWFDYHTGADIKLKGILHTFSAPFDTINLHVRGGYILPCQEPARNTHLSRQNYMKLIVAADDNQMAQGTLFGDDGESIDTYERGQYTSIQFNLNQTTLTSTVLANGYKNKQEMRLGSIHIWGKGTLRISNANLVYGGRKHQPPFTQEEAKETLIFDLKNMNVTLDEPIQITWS
UniProt P23739, 1-1013 limits assumed: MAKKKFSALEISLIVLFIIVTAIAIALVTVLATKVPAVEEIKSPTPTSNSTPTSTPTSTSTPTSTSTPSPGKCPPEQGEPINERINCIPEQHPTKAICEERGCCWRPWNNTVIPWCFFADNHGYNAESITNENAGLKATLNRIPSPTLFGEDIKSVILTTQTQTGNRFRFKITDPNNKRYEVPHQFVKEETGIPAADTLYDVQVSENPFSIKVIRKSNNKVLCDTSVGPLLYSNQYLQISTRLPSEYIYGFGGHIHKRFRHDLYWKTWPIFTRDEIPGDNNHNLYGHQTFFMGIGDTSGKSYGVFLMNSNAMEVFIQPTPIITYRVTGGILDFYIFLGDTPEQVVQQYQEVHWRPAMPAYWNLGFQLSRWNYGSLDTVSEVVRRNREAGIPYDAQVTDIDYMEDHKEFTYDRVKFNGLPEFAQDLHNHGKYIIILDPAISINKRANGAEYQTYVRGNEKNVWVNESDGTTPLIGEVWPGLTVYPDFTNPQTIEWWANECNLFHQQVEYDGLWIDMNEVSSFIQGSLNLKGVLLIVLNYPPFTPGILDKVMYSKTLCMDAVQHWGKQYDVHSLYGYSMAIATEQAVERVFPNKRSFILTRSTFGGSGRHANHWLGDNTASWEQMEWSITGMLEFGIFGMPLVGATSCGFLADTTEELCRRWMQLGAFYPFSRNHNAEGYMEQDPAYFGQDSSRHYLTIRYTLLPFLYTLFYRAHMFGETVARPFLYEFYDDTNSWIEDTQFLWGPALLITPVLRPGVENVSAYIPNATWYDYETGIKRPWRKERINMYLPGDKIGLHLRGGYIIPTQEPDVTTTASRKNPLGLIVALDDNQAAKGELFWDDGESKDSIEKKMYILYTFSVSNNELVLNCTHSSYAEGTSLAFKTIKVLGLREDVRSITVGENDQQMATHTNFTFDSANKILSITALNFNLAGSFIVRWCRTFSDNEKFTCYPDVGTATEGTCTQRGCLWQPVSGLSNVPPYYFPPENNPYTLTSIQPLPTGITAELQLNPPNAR

In the case of `C[C@H]1O[C@H](O[C@H]2[C@H](O)[C@@H](O)[C@@H](O[C@H]3[C@H](O)[C@@H](O)C(O)O[C@@H]3CO)O[C@@H]2CO)[C@H](O)[C@@H](O)[C@@H]1N[C@H]1C=C(CO)[C@@H](O)[C@H](O)[C@H]1O` (stereo partly specified) [ACARBOSE], the IC50 is reported as < 50 µM.

From ChEMBL document CHEMBL3112477, “Rat intestinal sucrase inhibition of constituents from the roots of Rosa rugosa Thunb” (Bioorg Med Chem Lett, 2014)
